pIC50: −log10 of the molar value.
Experiments:
Phospholipase A2 group V = biological target: T1, Phospholipase A2 group V (Homo sapiens, UniProt P39877); test: Inhibition of human sPLA2 group 5
T1 sequence (P39877 whole entry): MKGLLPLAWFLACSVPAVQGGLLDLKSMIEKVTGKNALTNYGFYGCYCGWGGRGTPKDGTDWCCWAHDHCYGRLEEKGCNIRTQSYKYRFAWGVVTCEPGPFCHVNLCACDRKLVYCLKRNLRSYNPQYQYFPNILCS

[1] = biological target: T2, Phospholipase A2, membrane associated (Homo sapiens, UniProt P14555); test: Inhibition of sPLA2 group 2A
T2 sequence (P14555 whole entry): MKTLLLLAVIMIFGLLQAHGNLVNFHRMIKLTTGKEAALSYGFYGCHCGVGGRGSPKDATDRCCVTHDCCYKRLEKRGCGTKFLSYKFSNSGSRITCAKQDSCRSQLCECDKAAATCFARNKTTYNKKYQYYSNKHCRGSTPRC

[2] = biological target: T2, Phospholipase A2, membrane associated; test: Inhibition of human sPLA2 group 2A
[3] = biological target: T3, Phospholipase A2, membrane associated (Rattus norvegicus, UniProt P14423); test: Inhibition of rat sPLA2 group 2A
T3 sequence (P14423 whole entry): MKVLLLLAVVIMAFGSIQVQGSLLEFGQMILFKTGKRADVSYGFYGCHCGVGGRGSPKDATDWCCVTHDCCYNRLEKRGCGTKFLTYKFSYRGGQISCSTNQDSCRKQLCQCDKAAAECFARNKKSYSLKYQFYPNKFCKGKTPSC

pIC50 (Phospholipase A2 group V) | pIC50 [1] | pIC50 [2] | pIC50 [3] | Compound
6.96 | 6.00 | 7.10 | 6.92 | CCCCCCCCCCCC(=O)c1c(O)c(C(=O)CCCCCCCCCCC)c(O)c(C2CC(c3ccc(O)cc3)Oc3cc(O)ccc32)c1O (configuration not stated)
 |  |  | 7.22 | CCCCCCCCCCCC(=O)c1c(O)c(C(=O)CCCCCCCCCCC)c(O)c([C@@H]2C[C@H](c3ccc(O)cc3)Oc3cc(O)ccc32)c1O
 |  |  | 7.15 | CCCCCCCCCCCC(=O)c1c(O)c(C(=O)CCCCCCCCCCC)c(O)c([C@H]2C[C@@H](c3ccc(O)cc3)Oc3cc(O)ccc32)c1O
 |  |  | 6.92 | CCCCCCCCCCCC(=O)c1c(O)c(C(=O)CCCCCCCCCCC)c(O)c([C@@H]2C[C@@H](c3ccc(O)cc3)Oc3cc(O)ccc32)c1O

— ChEMBL document CHEMBL1142463 (Bioorg Med Chem Lett, 2008)
